Drawing on PubChem BioAssay AID824 (SRMLSC, 2007), this text covers viability for 1 compound.

Molecules are shown by their SMILES. This is a selection; strong and weak results do not stand in their true shares. Results filed as inconclusive are left out. Activity calls are given as the source filed them.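 Rule for the calls: active = viability at or below 27.92% in each of two runs, the all-compound median minus 4 SD; inconclusive = no clear call, values can overlap the other calls; inactive = the rest.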

The assay is described as follows: growth suppression of PTEN-deleted HCT116, pilot screen, cell-based, HCT116 clonal line, CellTiter-Glo (AID 824).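 Note: 0% = 20 µM Hyamine control and 100% = vehicle cell control.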 As to conditions: 60 h, at 10 µM, hits give low values. Background: In ATP-based viability assays light output follows the ATP content of the culture.
As to `COC(=O)c1cc2c(s1)N=C(c1ccccc1)N(C)P2(=O)N1CCOCC1` (stereo unspecified), the viability was inactive: 93.8%.

For orientation: viability means a per cent measure of how many cells are alive, often set against a control.
